Experiments:
[1] = molecular target: NMDAR2B (Homo sapiens, UniProt Q13224); conditions: b58; cited from earlier work
[2] = system: Abeta oligomer-induced membrane trafficking deficits in primary hippocampal neurons; assay: Membrane trafficking/exocytosis (MTT) assay; assay type: cell-based, rat; conditions: synthetic Abeta oligomer, increasing compound concentrations
[3] = In vivo PK, plasma and brain levels; conditions: Compound II, at 3 hours in b899
[4] = mouse, in vivo

Amino acid sequences for entries named in this document (tags omitted). Residues count along the entry.
UniProt Q13224, 27-1484, species assumed: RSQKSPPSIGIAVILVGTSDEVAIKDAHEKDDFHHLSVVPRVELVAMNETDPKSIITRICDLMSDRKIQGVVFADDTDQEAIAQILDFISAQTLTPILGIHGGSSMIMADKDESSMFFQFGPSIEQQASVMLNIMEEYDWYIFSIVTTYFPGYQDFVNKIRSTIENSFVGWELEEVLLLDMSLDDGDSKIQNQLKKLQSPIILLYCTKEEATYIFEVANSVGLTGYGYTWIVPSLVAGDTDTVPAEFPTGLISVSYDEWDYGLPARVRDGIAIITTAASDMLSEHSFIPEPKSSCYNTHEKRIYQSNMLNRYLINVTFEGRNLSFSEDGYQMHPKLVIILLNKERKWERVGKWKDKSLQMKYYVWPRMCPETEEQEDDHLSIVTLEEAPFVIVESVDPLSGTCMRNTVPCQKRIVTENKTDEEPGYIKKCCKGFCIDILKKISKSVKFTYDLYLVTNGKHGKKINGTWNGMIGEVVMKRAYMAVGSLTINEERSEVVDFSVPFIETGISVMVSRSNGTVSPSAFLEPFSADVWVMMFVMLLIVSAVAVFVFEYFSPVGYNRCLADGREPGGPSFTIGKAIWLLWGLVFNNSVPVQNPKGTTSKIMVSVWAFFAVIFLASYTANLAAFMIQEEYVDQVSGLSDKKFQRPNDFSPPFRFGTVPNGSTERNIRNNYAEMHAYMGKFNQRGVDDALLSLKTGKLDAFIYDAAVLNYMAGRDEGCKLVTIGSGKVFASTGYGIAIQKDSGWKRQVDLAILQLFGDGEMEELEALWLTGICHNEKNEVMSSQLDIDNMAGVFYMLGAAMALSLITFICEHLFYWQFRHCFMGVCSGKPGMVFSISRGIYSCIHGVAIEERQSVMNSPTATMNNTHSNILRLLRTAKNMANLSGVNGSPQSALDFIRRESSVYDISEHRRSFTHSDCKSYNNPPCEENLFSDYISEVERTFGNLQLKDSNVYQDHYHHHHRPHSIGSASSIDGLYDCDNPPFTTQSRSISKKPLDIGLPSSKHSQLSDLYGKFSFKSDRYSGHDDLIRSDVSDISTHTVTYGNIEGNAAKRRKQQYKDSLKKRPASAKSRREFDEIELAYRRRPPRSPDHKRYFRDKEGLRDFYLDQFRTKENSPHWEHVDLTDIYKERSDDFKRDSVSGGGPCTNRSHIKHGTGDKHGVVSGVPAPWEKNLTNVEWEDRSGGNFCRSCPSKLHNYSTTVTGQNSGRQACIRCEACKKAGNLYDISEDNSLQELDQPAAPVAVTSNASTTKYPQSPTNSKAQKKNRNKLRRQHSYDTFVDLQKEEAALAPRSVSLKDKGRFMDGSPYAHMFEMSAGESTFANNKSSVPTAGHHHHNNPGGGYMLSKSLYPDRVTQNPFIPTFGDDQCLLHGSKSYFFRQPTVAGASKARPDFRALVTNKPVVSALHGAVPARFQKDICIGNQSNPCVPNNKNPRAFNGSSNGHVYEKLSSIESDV

SMILES | Affinity NR2B [1] [nM] | Shift of Abeta oligomer EC50 [2] | Brain/plasma ratio [3] | Brain/plasma ratio ([3]; listed as compound II) | Brain penetration [4]
C[C@@H]([C@@H](O)c1ccc(O)cc1)N1CCC(Cc2ccccc2)CC1 [Threo-ifenprodil (TIF), Threo-ifenprodil] | 222 | – | – | – | –
COc1cc(CCC(C)NCc2ccc(C(F)(F)F)cc2)ccc1O (centres unmarked) [Compound II] | – | rightward shift | 8 | > 8 | highly brain penetrant

Source: patent US20140378460A1, “COMPOSITIONS AND METHODS FOR TREATING NEURODEGENERATIVE DISEASE” (COGNITION THERAPEUTICS, INC., priority 2011, published 2014)
